Measurements from US9289509B2, “Uses of immunoconjugates targeting CD138” (Biotest AG, priority 2009, dated 2016).

Test system: MOLP8 multiple myeloma cells
Test: MOLP8 xenograft: BT062 and VELCADE combination therapy
Type: in vivo, mouse
Details: Velcade alone, dosed days 1, 4, 8 and 11; day 10

In the case of `CC(C)C[C@H](NC(=O)[C@H](Cc1ccccc1)NC(=O)c1cnccn1)B(O)O` [Velcade, reference compound], the “Fractional tumor volume (FTV)” value is reported as 1.05.
